For this test, the target named is activated JNK3 (Homo sapiens, UniProt P53779). Put plainly: JNK3 inhibition, spectrophotometric coupled-enzyme assay. The format is biochemical. As to conditions: read-out: Activity in the JNK3 Inhibition Assay (Ki rating); activated JNK3 10 nM, 10 μM ATP, 30° C.; Ki from competitive inhibition model.

The chains behind the UniProt entries cited, without tags or fusion partners. Residues count along the entry.
UniProt P53779, 40-402 limits assumed: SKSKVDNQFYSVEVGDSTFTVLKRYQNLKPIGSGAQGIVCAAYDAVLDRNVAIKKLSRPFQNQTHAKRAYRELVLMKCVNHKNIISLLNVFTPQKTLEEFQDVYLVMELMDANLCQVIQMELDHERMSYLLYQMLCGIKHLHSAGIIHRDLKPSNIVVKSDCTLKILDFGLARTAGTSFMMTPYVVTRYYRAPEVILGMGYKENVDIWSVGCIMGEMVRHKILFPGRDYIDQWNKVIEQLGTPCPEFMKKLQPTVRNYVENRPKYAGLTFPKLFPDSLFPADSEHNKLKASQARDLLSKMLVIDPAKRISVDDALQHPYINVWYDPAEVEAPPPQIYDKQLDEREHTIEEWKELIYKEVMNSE

Drawing on patent US6693108B2, “Inhibitors of c-JUN N terminal kinases (JNK) and other protein kinases” (Vertex Pharmaceuticals Incorporated, priority 1999, dated 2004), this text covers Ki for 38 molecules.

One may read the Ki as the equilibrium dissociation constant of an inhibitor or competing ligand from its target.

Where only a bound is given, the exact number is not on record here.

On to `Cc1onc(-c2ccccc2)c1-c1ccnc(Nc2cccc(N)c2)c1`, for which the Ki is under 100 nM. The figure for `COc1ccc(OC)c(Nc2nccc(-c3c(-c4ccccc4)noc3C)n2)c1` is 100 to 1000 nM. Consider `COC(=O)c1cccc(Nc2cc(-c3c(-c4ccccc4)noc3C)ccn2)c1`, for which the inhibitory constant (Ki) was under 100 nM. As for `Cc1onc(-c2ccccc2C(F)(F)F)c1-c1ccnc(Nc2cccc(C#N)c2)n1`, the inhibitory constant (Ki) was over 1000 nM. Take `Cc1onc(-c2cccc([N+](=O)[O-])c2)c1-c1ccnc(Nc2ccc(C#N)c(F)c2)n1`: the Ki fell in the range of 100 to 1000 nM. Regarding `COc1ccc(C#N)cc1Nc1nccc(-c2c(-c3ccccc3)noc2C)n1`, the Ki is under 100 nM. Consider `CC(=O)Nc1cccc(Nc2cc(-c3c(-c4ccccc4)noc3C)ccn2)c1`, for which the Ki is under 100 nM. On to `Cc1onc(-c2ccccc2)c1-c1ccnc(NCCN2CCOCC2)c1`, for which the Ki lay within 100 to 1000 nM.

Regarding `Cc1onc(-c2ccccc2)c1-c1ccnc(Nc2ccc(C#N)cc2)c1`, the inhibitory constant (Ki) was under 100 nM. As for `Cc1onc(-c2cccc(OCc3ccccc3)c2)c1-c1ccnc(Nc2cccc(C#N)c2)n1`, the inhibitory constant (Ki) is 100 to 1000 nM. The figure for `CC(=O)c1ccc(Nc2nccc(-c3c(-c4c(F)cccc4F)noc3C)n2)cc1` is under 100 nM; for `CCOC(=O)CC(C)Nc1nccc(-c2c(-c3ccccc3)noc2C)n1` (centres unmarked) it is under 100 nM. In the case of `Cc1onc(-c2ccccc2)c1-c1ccnc(Nc2ccc(C#N)c(F)c2)n1`, the inhibition constant (Ki) is under 100 nM. For `COCC(C)Nc1nccc(-c2c(-c3ccccc3)noc2C)n1` (centres unmarked), the inhibition constant (Ki) was under 100 nM. As to `CSc1ccccc1Nc1nccc(-c2c(-c3ccccc3)noc2C)n1`, the inhibition constant Ki was 100 to 1000 nM. On to `Cc1onc(-c2ccccc2)c1-c1ccnc(Nc2ccccc2[N+](=O)[O-])n1`, for which the Ki is under 100 nM. Take `Cc1onc(-c2ccccc2)c1-c1ccnc(Nc2cc(C#N)ccc2F)n1`: the Ki was under 100 nM. Turning to `Cc1onc(-c2ccccc2)c1-c1ccnc(NCCN2CCCC2)n1`, the Ki was over 1000 nM. With `Cc1onc(-c2c(F)cccc2F)c1-c1ccnc(Nc2ccc(F)c(C#N)c2)n1`, the Ki is under 100 nM. The figure for `Cc1onc(-c2ccccc2)c1-c1ccnc(Nc2ccc(C#N)cc2)n1` is under 100 nM; for `Cc1ccccc1-c1noc(C)c1-c1ccnc(Nc2cccc(F)c2)n1` it is 100 to 1000 nM. For `Cc1onc(-c2ccc3c(c2)OCO3)c1-c1ccnc(Nc2ccc(C#N)c(F)c2)n1`, the inhibitory constant (Ki) is 100 to 1000 nM. Take `Cc1onc(-c2ccccc2)c1-c1ccnc(NCCN(C)C)n1`: the Ki was over 1000 nM. For the molecule `Cc1onc(-c2ccccc2)c1-c1ccnc(NC(C)CO)n1` (centres unmarked), the inhibition constant Ki is under 100 nM. Regarding `Cc1cc(C)cc(Nc2nccc(-c3c(-c4ccccc4)noc3C)n2)c1`, the inhibition constant (Ki) was under 100 nM. Take `Cc1ccccc1-c1noc(C)c1-c1ccnc(Nc2ccc(C#N)cc2)n1`: the Ki was over 1000 nM.

As to `Cc1onc(-c2ccccc2)c1-c1ccnc(Nc2ccccc2C(F)(F)F)n1`, the Ki lay in the range of 100 to 1000 nM.

Turning to `Cc1onc(-c2cccc(C#N)c2)c1-c1ccnc(Nc2ccc(C#N)c(F)c2)n1`, the inhibition constant (Ki) is 100 to 1000 nM. The figure for `COc1cccc(Nc2cc(-c3c(-c4ccccc4)noc3C)ccn2)c1` is under 100 nM; for `Cc1onc(-c2cccc([N+](=O)[O-])c2)c1-c1ccnc(Nc2cccc(C#N)c2)n1` it is 100 to 1000 nM.

As for `Cc1onc(-c2ccccc2)c1-c1ccnc(Nc2cccc(F)c2)n1`, the inhibition constant Ki was under 100 nM.

Regarding `Cc1onc(-c2ccccc2)c1-c1ccnc(Nc2cccc([N+](=O)[O-])c2)c1`, the inhibition constant (Ki) was under 100 nM. The same measure for `Cc1cccc(Nc2nccc(-c3c(-c4ccccc4)noc3C)n2)c1`: under 100 nM; for `Cc1onc(-c2cccc(C#N)c2)c1-c1ccnc(Nc2ccc(C#N)cc2)n1`: 100 to 1000 nM; for `COc1ccc(Nc2nccc(-c3c(-c4ccccc4)noc3C)n2)cc1OC`: under 100 nM. The figure for `Cc1onc(-c2ccc3c(c2)OCO3)c1-c1ccnc(Nc2cccc(C#N)c2)n1` is 100 to 1000 nM. With `CCN1CCCC1CNc1nccc(-c2c(-c3ccccc3)noc2C)n1` (centres unmarked), the Ki is over 1000 nM.

For the molecule `Cc1onc(-c2ccccc2)c1-c1ccnc(Nc2cccc(Cl)c2C)n1`, the Ki is under 100 nM.
